Reference: patent US6399316B1, “PACAP receptor protein, method for preparing said protein, and use thereof” (Takeda Chemical Industries, Ltd., priority 1994, dated 2002)

Columns and labels:
[1] = molecular target: T1, rat PACAP receptor protein Type I-B (pRPR4-B) (Rattus norvegicus, UniProt P32215); assay: Intracellular cyclic AMP of rat PACAP receptor cDNA-introduced CHO cells, strain B17; assay type: cell-based; conditions: CHO strain B17, 37° C., 40 minutes, 0.5 mM IBMX, FIG. 43
T1 construct: two kinds of complete primary structures of rat PACAP receptor protein were deduced; expressed in transfected cells; host or cells: CHO cells, pRPR4-B (pRc/CMV); clone B17 for cAMP
T1 sequence (P32215 20-495 isoform P32215-2 limits assumed): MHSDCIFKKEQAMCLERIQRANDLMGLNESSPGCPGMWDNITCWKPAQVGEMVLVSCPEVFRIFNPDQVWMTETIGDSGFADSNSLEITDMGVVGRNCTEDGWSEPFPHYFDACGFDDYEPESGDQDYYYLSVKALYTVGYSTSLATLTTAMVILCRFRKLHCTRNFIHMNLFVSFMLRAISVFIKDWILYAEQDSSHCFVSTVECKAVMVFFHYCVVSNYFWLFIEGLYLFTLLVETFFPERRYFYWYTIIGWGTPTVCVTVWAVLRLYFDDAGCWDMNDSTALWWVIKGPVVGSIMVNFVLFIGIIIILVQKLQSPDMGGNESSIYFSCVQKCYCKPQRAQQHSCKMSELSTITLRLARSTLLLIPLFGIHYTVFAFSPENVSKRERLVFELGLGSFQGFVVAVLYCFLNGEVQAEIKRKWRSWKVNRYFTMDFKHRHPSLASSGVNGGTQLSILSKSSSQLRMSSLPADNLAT
Description: (§1) From the binding experiment with [^125I]-PACAP27 of (3) described above, using CHO strains A12 and B17 highly producing rat PACAP receptor protein, the production promotion of intracellular cyclic AMP with PACAPs was detected in the following manner. Each 48-well plate for tissue culture was inoculated with each of the cell strains. at a density of 1.0×10^5 cells/well, followed by cultivation for 3 days. The plate was washed twice with Ham's F12 medium supplemented with 0.1% BSA and 0.5 mM IBMX, and 500 μl/well of the same medium was added thereto. PACAP27, PACAP38 or VIP having each concentration was added thereto in a 1/100 amount, followed by standing at 37° C. for 40 minutes. The supernatant was removed, and extraction was conducted with 100% cold ethanol. The extract was evaporated to dryness with a centrifugal freeze dryer, and redissolved in the buffer attached to an EIA kit for assaying cyclic AMP (Amersham). Then, the amount of cyclic AMP was assayed according to the formulation of the kit.

[2] = molecular target: T2, rat PACAP receptor protein Type I-A (pRPR3-A) (Rattus norvegicus, UniProt P32215); assay: Intracellular cyclic AMP of rat PACAP receptor cDNA-introduced CHO cells, strain A12; assay type: cell-based; conditions: CHO strain A12, 37° C., 40 minutes, 0.5 mM IBMX, FIG. 43
T2 construct: pRPACAPR46 and pRPACAPR5 were recombined at the BamHI site to prepare pRPACAPR46-5 having a complete translation frame; expressed in transfected cells; host or cells: CHO cells, pRPR3-A (pRc/CMV); clone A12 for cAMP
T2 sequence (P32215 20-467 isoform P32215-5 limits assumed): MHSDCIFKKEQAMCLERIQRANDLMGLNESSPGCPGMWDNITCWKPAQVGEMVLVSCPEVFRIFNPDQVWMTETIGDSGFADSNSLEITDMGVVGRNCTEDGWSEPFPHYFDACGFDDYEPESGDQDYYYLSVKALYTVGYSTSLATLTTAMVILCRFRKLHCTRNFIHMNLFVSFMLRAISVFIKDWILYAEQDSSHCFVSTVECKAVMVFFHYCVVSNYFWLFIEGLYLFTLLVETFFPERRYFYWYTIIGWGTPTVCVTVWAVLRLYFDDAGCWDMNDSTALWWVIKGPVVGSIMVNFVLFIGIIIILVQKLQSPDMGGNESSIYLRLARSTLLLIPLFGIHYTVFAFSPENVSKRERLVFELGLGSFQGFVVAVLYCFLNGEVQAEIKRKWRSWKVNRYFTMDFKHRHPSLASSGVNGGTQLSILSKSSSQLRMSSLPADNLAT
Description: as §1

[3] = molecular target: T1, rat PACAP receptor protein Type I-B (pRPR4-B); assay: Competitive binding with [125I]-PACAP27, membrane fraction of pRPR4-B-introduced CHO cells; conditions: 100 pM [125I]-PACAP27, 25° C., 1 hour, FIG. 40 (B)
Description: (§2) The pRPR3-A-introduced and pRPR4-B-introduced CHO cells obtained in (2) described above were each disrupted in sodium carbonate buffer containing 1 mM EDTA, 0.5 mM PMSF, 20 μg/ml leupeptin, 4 μg/ml E-64 and 1 μg/ml pepstatin with a Polytron homogenizer (Kinematica) to prepare membrane fractions. Using the membrane fractions, complex binding experiments were conducted. For each of the membrane fractions of the pRPR3-A-introduced CHO cells and the pRPR4-B-introduced CHO cells, each of 10 μg and 15 μg (converted to a protein amount) thereof was ligated with. 100 pM of [^125I]-PACAP27 in a buffer containing 20 mM Tris (pH 7.4), 1 mM EDTA, 0.05% CHAPS, 0.1% BSA and various protease inhibitors. For the competitive experiments, PACAP27 and VIP having each concentration were added. The reaction was conducted at 25° C. for 1 hour, and bound ligands were separated from free ligands by filtration through a filter. As to non-specific binding, a value in the case that 1 μM unlabeled PACAP27 was added and used as a standard. The amount of bound ligands was measured with a γ-counter.

[4] = molecular target: T2, rat PACAP receptor protein Type I-A (pRPR3-A); assay: Competitive binding with [125I]-PACAP27, membrane fraction of pRPR3-A-introduced CHO cells; conditions: 100 pM [125I]-PACAP27, 25° C., 1 hour, FIG. 40 (A)
Description: as §2

PACAP27
production of intracellular cyclic AMP [1]: promoted the production of intracellular cyclic AMP, depending on the concentrations
production of intracellular cyclic AMP [2]: promoted the production of intracellular cyclic AMP, depending on the concentrations
competition with [125I]-PACAP27 [3]: concentration-dependent competition took place
competition with [125I]-PACAP27 [4]: concentration-dependent competition took place
